One substance from PMC3241856 (ACS chemical biology, 2011) can be followed below.

By UniProt entry, the sequences of proteins in these tests, tags left out.
UniProt P33535, whole entry: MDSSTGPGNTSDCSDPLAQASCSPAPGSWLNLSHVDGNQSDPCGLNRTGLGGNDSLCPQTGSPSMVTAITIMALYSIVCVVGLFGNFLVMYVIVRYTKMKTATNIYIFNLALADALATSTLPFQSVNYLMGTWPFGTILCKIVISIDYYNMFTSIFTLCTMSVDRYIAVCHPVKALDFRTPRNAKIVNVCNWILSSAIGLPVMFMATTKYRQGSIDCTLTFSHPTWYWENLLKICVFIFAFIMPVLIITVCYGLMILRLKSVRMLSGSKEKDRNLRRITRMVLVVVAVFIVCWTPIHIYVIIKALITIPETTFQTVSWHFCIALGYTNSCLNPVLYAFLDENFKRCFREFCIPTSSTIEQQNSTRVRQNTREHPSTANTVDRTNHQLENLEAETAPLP

For this experiment, the target named is mu opioid receptor (MOR) (Rattus norvegicus, UniProt P33535). Put plainly: Whole cell inhibition of forskolin-stimulated adenylyl cyclase, C6-MOR cells. The class given is cell-based.

Take “[D-Ala^2-N-Me-Phe^4-Gly^5-ol]-enkephalin [DAMGO]”: the “maximal inhibition of forskolin-stimulated cAMP production” value was determined as 86 ± 4.3%.
